Measured values as given in patent US20240173419A1, “CDK2 DEGRADERS AND USES THEREOF” (Kymera Therapeutics, Inc., priority 2022, published 2024).

Biological target: CDK2 (Homo sapiens, UniProt P24941)
Experiment: CDK2 degradation in MKN1 cells (AlphaLISA)
Conditions: for CDK2 degradation 14 h: Average Dmax %: 14 h incubation; for DC50: read-out: CDK2 degradation 14 h: Mean external-Abs DC50, 14 h incubation
Method: Degradation of CDK2 in MKN1 cells was measured using AlphaLISA technology (PerkinElmer ALSU-TCDK2-A10K). MKN1 cells were maintained in RPMI1640 medium containing 10% FBS+1× penn/strep. Cells were seeded in 96-well plates (Corning 3599) at a density of 2e4 cells per well in 80 μL of fresh complete growth medium. Cells were incubated overnight at 37° C., 5% CO2. Compounds were then added to the cell assay plates with a final top concentration of 10 μM in a 1:5 dilution series with a total of 11 doses (0.001 nM-10 μM). The final volume per well was 160 μL and the final DMSO concentration was 0.1%. Additionally, wells containing no cells and only complete growth medium were also maintained on the cell assay plates (‘no cell’ wells) and processed along with experimental wells. After 14 hour-incubation at 37° C., 5% CO2, the medium was removed and the cells were washed once with 100 μL of 1×PBS. Following removal of PBS, 40 μL of 1× Lysis Buffer containing 1× protease and phosphatase inhibitors (Roche 4693116001; Roche 4906837001) were added to each well. The cell assay plate was agitated on a plate shaker at 350 rpm for 10 minutes at room temperature. 10 μL of each cell lysate were transferred to a 384-well plate (PerkinElmer 6007290). 10 μL of control lysates (from PerkinElmer ALSU-TCDK2-A10K kit) were added to separate wells to generate a standard curve. Activation Buffer was prepared by diluting 25-fold in combined Reaction Buffer 1 and Reaction Buffer 2. Acceptor Beads were diluted 50-fold in combined Reaction Buffers. 5 μL of Acceptor Mix were added to each well. The plate was sealed with Topseal-Aadhesive film, covered with foil, and incubated in the dark for 1 hour at room temperature. Under subdued light, the Donor Beads were diluted 50-fold in Dilution Buffer. 5 μL of Donor Mix were added to each well under subdued light. The plate was sealed with Topseal-A adhesive film, covered with foil, and incubated in the dark for 1 hour at room temperature. Under subdued light, the plates were analyzed on an EnVision Microplate Reader (PerkinElmer Model 2009-0030). The average signal from ‘no cell’ wells was subtracted from the signal in experimental wells prior to calculating Alpha signal for test compounds and negative control (0.100 DMSO). The data were analyzed using Xlfit (v5.3. 1.3) and the dose-dependent CDK2 degradation data were fit using a four-parameter logistic model to calculate DC50.

Cc1cc(S(=O)(=O)N[C@H](C)CO[C@H]2CC[C@H](CN3CCN(c4ccc5c(c4F)n(C)c(=O)n5C4CCC(=O)NC4=O)CC3)CC2)ccc1Nc1ncc(C(F)(F)F)c(N2CCCC(C)(O)C2)n1 (some centres unmarked)
CDK2 degradation 14 h: Average Dmax %: A (A (>75% o))
DC50: < 100 nM

Cc1cc(S(=O)(=O)NC2CCC(O)(CC3CCN(c4ccc(C5CCC(=O)NC5=O)c(F)c4)CC3)CC2)ccc1Nc1ncc(C(F)(F)F)c(N2CCC[C@](C)(O)C2)n1 (some centres unmarked)
CDK2 degradation 14 h: Average Dmax %: A (A (>75% o))
DC50: < 100 nM

Cc1cc(S(=O)(=O)C2CC3(CCN(CC4CCN(c5ccc6c(c5F)n(C)c(=O)n6C5CCC(=O)NC5=O)CC4)CC3)C2)ccc1Nc1ncc(C(F)(F)F)c(N2CCC[C@](C)(O)C2)n1 (some centres unmarked)
CDK2 degradation 14 h: Average Dmax %: A (A (>75% o))
DC50: < 100 nM

Cc1cc(S(=O)(=O)N[C@H]2C[C@@H](CN3CC(c4ccc(C5CCC(=O)NC5=O)c(Cl)c4)C3)C2)ccc1Nc1ncc(C(F)(F)F)c(N2CCC[C@](C)(O)C2)n1 (some centres unmarked)
CDK2 degradation 14 h: Average Dmax %: B (B (>50% -75%))
DC50: > 1000 nM

Cc1cc(S(=O)(=O)N[C@H]2CC[C@H](CN3CCN(c4cccc(N[C@@H]5CCC(=O)NC5=O)c4)CC3)CC2)ccc1Nc1ncc(C(F)(F)F)c(N2CCC[C@](C)(O)C2)n1
CDK2 degradation 14 h: Average Dmax %: A (A (>75% o))
DC50: < 100 nM

Cc1cc(S(=O)(=O)N[C@H](C)CO[C@H]2CC[C@H](CN3CC(c4cccc5c4n(C)c(=O)n5C4CCC(=O)NC4=O)C3)CC2)ccc1Nc1ncc(C(F)(F)F)c(N2CCC[C@](C)(O)C2)n1 (some centres unmarked)
CDK2 degradation 14 h: Average Dmax %: A (A (>75% o))
DC50: < 100 nM

COc1cc(S(=O)(=O)N[C@H]2CC[C@H](CN3CCN(c4ccc(C5CCC(=O)NC5=O)c(F)c4)CC3)CC2)ccc1Nc1ncc(C(F)(F)F)c(N2CCC[C@](C)(O)C2)n1 (some centres unmarked)
CDK2 degradation 14 h: Average Dmax %: A (A (>75% o))
DC50: < 100 nM

Cc1cc(S(=O)(=O)N[C@H](C)CO[C@H]2CC[C@H](CN3CC(c4cccc5c4n(C)c(=O)n5C4CCC(=O)NC4=O)C3)CC2)ccc1Nc1ncc(C(F)(F)F)c(N2CC[C@H](C(C)(C)O)C2)n1 (some centres unmarked)
CDK2 degradation 14 h: Average Dmax %: A (A (>75% o))
DC50: < 100 nM

Cc1cc(S(=O)(=O)N[C@H]2CC[C@H](N(C)C3CN(c4ccc(C5CCC(=O)NC5=O)cc4F)C3)CC2)ccc1Nc1ncc(C(F)(F)F)c(N2CCC[C@](C)(O)C2)n1 (some centres unmarked)
CDK2 degradation 14 h: Average Dmax %: C (C (>25% -50%))
DC50: > 1000 nM

Cc1cc(S(=O)(=O)C2CC3(CCN(CC4CCN(c5ccc6c(c5F)n(C)c(=O)n6C5CCC(=O)NC5=O)CC4)CC3)C2)ccc1Nc1ncc2ccc(=O)n(C3CCCC3)c2n1 (centres unmarked)
CDK2 degradation 14 h: Average Dmax %: A (A (>75% o))
DC50: < 100 nM

Cc1cc(S(=O)(=O)C2CC3(CCN(CCOC4CN(c5cccc(C6CCC(=O)NC6=O)c5)C4)CC3)C2)ccc1Nc1ncc2cc(Cl)c(=O)n(C3CCCC3)c2n1 (centres unmarked)
CDK2 degradation 14 h: Average Dmax %: C (C (>25% -50%))
DC50: > 1000 nM

Cc1cc(S(=O)(=O)NCCOCCOCCOCC2CCN(c3ccc(N4CCC(=O)NC4=O)cc3)CC2)ccc1Nc1ncc2cc(Cl)c(=O)n(C3CCCC3)c2n1
CDK2 degradation 14 h: Average Dmax %: B (B (>50% -75%))
DC50: 100 to 500 nM

Cc1cc(S(=O)(=O)CCCCN2CCN(CC3CCN(c4ccc5c(c4)n(C)c(=O)n5C4CCC(=O)NC4=O)CC3)CC2)ccc1Nc1ncc2cc(Cl)c(=O)n(C3CCCC3)c2n1 (centres unmarked)
CDK2 degradation 14 h: Average Dmax %: A (A (>75% o))
DC50: < 100 nM

Cc1cc(S(=O)(=O)NC2CCN(CC3CCN(c4ccc(C5CCC(=O)NC5=O)c(Cl)c4)CC3)CC2)ccc1Nc1ncc(C(F)(F)F)c(N2CCC[C@](C)(O)C2)n1 (some centres unmarked)
CDK2 degradation 14 h: Average Dmax %: A (A (>75% o))
DC50: < 100 nM

Cc1cc(S(=O)(=O)N[C@H](C)CO[C@H]2CC[C@H](CN3CCN(c4ccc5c(c4F)n(C)c(=O)n5C4CCC(=O)NC4=O)CC3)CC2)ccc1Nc1ncc(C(F)(F)F)c(N2CCC[C@](C)(O)C2)n1 (some centres unmarked)
CDK2 degradation 14 h: Average Dmax %: A (A (>75% o))
DC50: < 100 nM

Cc1cc(S(=O)(=O)N[C@H]2CC[C@H](CC3CCN(c4ccc(C5CCC(=O)NC5=O)cc4)CC3)CC2)ccc1Nc1ncc(C(F)(F)F)c(N2CCC[C@](C)(O)C2)n1 (some centres unmarked)
CDK2 degradation 14 h: Average Dmax %: A (A (>75% o))
DC50: 100 to 500 nM

CCc1cc(S(=O)(=O)N[C@H]2CC[C@H](CN3CCN(c4ccc(C5CCC(=O)NC5=O)c(F)c4)CC3)CC2)ccc1Nc1ncc(C(F)(F)F)c(N2CCC[C@](C)(O)C2)n1 (some centres unmarked)
CDK2 degradation 14 h: Average Dmax %: A (A (>75% o))
DC50: < 100 nM

Cc1cc(S(=O)(=O)N[C@H]2C[C@H](OCCN3CCC(c4ccc(C5CCC(=O)NC5=O)c(Cl)c4)CC3)C2)ccc1Nc1ncc(C(F)(F)F)c(N2CCC[C@](C)(O)C2)n1 (some centres unmarked)
CDK2 degradation 14 h: Average Dmax %: A (A (>75% o))
DC50: < 100 nM

Cc1cc(S(=O)(=O)N[C@H]2CC[C@H](CN3CCN(c4ccc(C5CCC(=O)NC5=O)c(Cl)c4F)CC3)CC2)ccc1Nc1ncc(C(F)(F)F)c(N2CCC[C@](C)(O)C2)n1 (some centres unmarked)
CDK2 degradation 14 h: Average Dmax %: A (A (>75% o))
DC50: < 100 nM

Cc1cc(S(=O)(=O)N[C@H]2C[C@H](N3CC4CC3CN4CC3CCN(c4c(Cl)ccc5c4n(C)c(=O)n5C4CCC(=O)NC4=O)CC3)C2)ccc1Nc1ncc(C(F)(F)F)c(N2CCC[C@](C)(O)C2)n1 (some centres unmarked)
CDK2 degradation 14 h: Average Dmax %: A (A (>75% o))
DC50: < 100 nM

Cc1cc(S(=O)(=O)N[C@H]2CCN(CC3CCN(c4ccc(C5CCC(=O)NC5=O)c(F)c4)CC3)C[C@H]2F)ccc1Nc1ncc(C(F)(F)F)c(N2CCC[C@](C)(O)C2)n1 (some centres unmarked)
CDK2 degradation 14 h: Average Dmax %: A (A (>75% o))
DC50: < 100 nM

Cc1cc(S(=O)(=O)N2CCC3(CCN(c4cccc5c4n(C)c(=O)n5C4CCC(=O)NC4=O)CC3)CC2)ccc1Nc1ncc2ccc(=O)n(C3CCCC3)c2n1 (centres unmarked)
CDK2 degradation 14 h: Average Dmax %: D (D (<25%))
DC50: > 1000 nM

Cc1cc(S(=O)(=O)NC2CCC(F)(CN3CCN(c4ccc(C5CCC(=O)NC5=O)cc4F)CC3)CC2)ccc1Nc1ncc(C(F)(F)F)c(N2CCC[C@](C)(O)C2)n1 (single isomer, unassigned)
CDK2 degradation 14 h: Average Dmax %: A (A (>75% o))
DC50: < 100 nM

Cc1cc(S(=O)(=O)NC2CCC3(CC2)CN(Cc2ccc(C4CCC(=O)NC4=O)c(Cl)c2)C3)ccc1Nc1ncc(C(F)(F)F)c(N2CCC[C@](C)(O)C2)n1 (some centres unmarked)
CDK2 degradation 14 h: Average Dmax %: B (B (>50% -75%))
DC50: > 1000 nM

Cc1cc(S(=O)(=O)N[C@H]2C[C@H](N3CCN(CC4CCN(c5c(F)ccc6c5n(C)c(=O)n6C5CCC(=O)NC5=O)CC4)CC3)C2)ccc1Nc1ncc(C(F)(F)F)c(N2CCC[C@](C)(O)C2)n1 (some centres unmarked)
CDK2 degradation 14 h: Average Dmax %: A (A (>75% o))
DC50: < 100 nM

Cc1cc(S(=O)(=O)NC23CC(CN4CCN(c5ccc(C6CCC(=O)NC6=O)c(Cl)c5)CC4)(C2)C3)ccc1Nc1ncc(C(F)(F)F)c(N2CCC[C@](C)(O)C2)n1 (some centres unmarked)
CDK2 degradation 14 h: Average Dmax %: A (A (>75% o))
DC50: < 100 nM

Cc1cc(S(=O)(=O)C2CC3(CCN(CC4CCN(c5cccc6c5n(C)c(=O)n6C5CCC(=O)NC5=O)CC4)CC3)C2)ccc1Nc1ncc(C(F)(F)F)c(N2CCC[C@](C)(O)C2)n1 (some centres unmarked)
CDK2 degradation 14 h: Average Dmax %: A (A (>75% o))
DC50: < 100 nM

Cc1cc(S(=O)(=O)N[C@H]2CC[C@H](CN3CCN(c4cccc(NC5CCC(=O)NC5=O)c4)CC3)CC2)ccc1Nc1ncc2c(n1)N([C@@H]1CCC[C@@H](O)C1)C(=O)C21CC1 (some centres unmarked)
CDK2 degradation 14 h: Average Dmax %: A (A (>75% o))
DC50: < 100 nM

O=C1CCC(N2Cc3cc(N4CCN(Cc5cccc(S(=O)(=O)N6CCC(Nc7ncc8ccc(=O)n(C9CCCC9)c8n7)CC6)c5)CC4)c(F)cc3C2=O)C(=O)N1 (centres unmarked)
CDK2 degradation 14 h: Average Dmax %: A (A (>75% o))
DC50: < 100 nM

[2H][C@@](C)(CO[C@H]1CC[C@H](CN2CCN(c3ccc4c(c3F)n(C)c(=O)n4C3CCC(=O)NC3=O)CC2)CC1)NS(=O)(=O)c1ccc(Nc2ncc(C(F)(F)F)c(N3CCC[C@](C)(O)C3)n2)c(C)c1 (some centres unmarked)
CDK2 degradation 14 h: Average Dmax %: A (A (>75% o))
DC50: < 100 nM

Cc1cc(S(=O)(=O)C2CC3(CCN(CC4CCN(c5cccc6c5n(C)c(=O)n6C5CCC(=O)NC5=O)CC4)CC3)C2)ccc1Nc1ncc(C(F)(F)F)c(N2CCC(C)(O)CC2)n1 (centres unmarked)
CDK2 degradation 14 h: Average Dmax %: A (A (>75% o))
DC50: < 100 nM

Cc1cc(S(=O)(=O)N[C@H]2C[C@H](N3CCN(CCC#Cc4ccc(Cl)c(C5CCC(=O)NC5=O)c4)CC3)C2)ccc1Nc1ncc(C(F)(F)F)c(N2CCC[C@](C)(O)C2)n1 (some centres unmarked)
CDK2 degradation 14 h: Average Dmax %: A (A (>75% o))
DC50: < 100 nM

Cc1cc(S(=O)(=O)NC2CCN(CC3(F)CN(c4ccc(C5CCC(=O)NC5=O)c(Cl)c4)C3)CC2)ccc1Nc1ncc(C(F)(F)F)c(N2CCC[C@](C)(O)C2)n1 (some centres unmarked)
CDK2 degradation 14 h: Average Dmax %: B (B (>50% -75%))
DC50: < 100 nM

CC1CC(NS(=O)(=O)c2ccc(Nc3ncc(C(F)(F)F)c(N4CCCC(C)(O)C4)n3)c(F)c2)CCN1CC1CCN(c2ccc(C3CCC(=O)NC3=O)c(F)c2)CC1 (single isomer, unassigned)
CDK2 degradation 14 h: Average Dmax %: A (A (>75% o))
DC50: 100 to 500 nM
